Results on two molecules are retold here after paper PMC6510822, “Identification of anticancer OATP2B1 substrates by an in vitro triple-fluorescence-based cytotoxicity screen” (Archives of Toxicology, 2019).

Marks after values point to notes of the source that are not given here.

The subject of assay [1] is Mes-Sa-B1 cells (Pgp overexpressing). In words: Fluorescence-based cytotoxicity assay, Mes-Sa-B1 mOr.
Assay [2] relates to A431-2B1 cells (OATP2B1 expressing). In words: Fluorescence-based cytotoxicity assay, OATP2B1-expressing A431-2B1 mCh.

As for `C1CN1c1nc(N2CC2)nc(N2CC2)n1` [NSC-9706, Triethylenemelamine], the “SR (Mes-Sa-B1)” value in assay [1] came to 1.3. Also, in assay [2], the “SR (A431-2B1 vs parental A431), screening of DTP Oncology Set IV” value was 7.73.

`Cc1c(N)nc([C@H](CC(N)=O)NC[C@H](N)C(N)=O)nc1C(=O)N[C@H](C(=O)N[C@H](C)[C@@H](O)[C@H](C)C(=O)N[C@H](C(=O)NCCc1nc(-c2nc(C(=O)NCCC[S+](C)C)cs2)cs1)[C@@H](C)O)[C@@H](OC1OC(CO)C(O)C(O)C1OC1OC(CO)C(O)C(OC(N)=O)C1O)c1cnc[nH]1` (stereo partly drawn) [NSC-125066, Bleomycin]: the “SR (Mes-Sa-B1)” value in assay [1] worked out at 1.44. Further, in assay [2], the “SR (A431-2B1 vs parental A431), screening of DTP Oncology Set IV” value amounted to 10.15; the “SR, co-culture” value is listed as 9.01^**; the “SR, monoculture” value is on record as 10.9^**.
